According to ChEMBL document CHEMBL1201862, “PubChem BioAssay data set” (2004):
This is one part of the list. Rule as the data show it: active = GI50 up to about 1.1 µM and inactive = higher. These assays gave more results; the selection is not random.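 Following 48 hours of exposure in 96-well plates, responses at five concentrations were used to interpolate endpoints linearly. GI50 is the concentration that inhibits growth by half.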 For some assays here: Results with a measured potency or affinity are listed apart.

Tests used:
Experiment in all cases: NCI tumour cell line growth inhibition, 48 h
[1] = tested on: SW-620
[2] = tested on: T47D
[3] = tested on: TK-10
[4] = tested on: U-251
[5] = tested on: UACC-257
[6] = tested on: UACC-62
[7] = tested on: UO-31
[8] = tested on: XF498

Measured: GI50

O[C@@H]1CCN2CCC[C@H]12
inactive: [1] > 100 µM | [2] > 100 µM | [3] > 100 µM | [4] > 100 µM | [5] > 100 µM | [6] > 100 µM | [7] 59 µM

COc1ccc2nccc(C=O)c2c1
inactive: [3] 32.1 µM | [5] 9.91 µM | [6] 11 µM | [7] 28.5 µM
active: [1] 0.245 µM | [2] 0.0993 µM | [4] 0.364 µM

C[S+](N)(=O)CCC(N)P(=O)(O)O (centres undefined)
inactive: [1] > 100 µM | [2] > 100 µM | [3] > 100 µM | [4] > 100 µM | [5] > 100 µM | [7] > 100 µM

O=C1CCN2CCCC12 (centres undefined)
inactive: [1] > 100 µM | [2] > 100 µM | [3] > 100 µM | [4] > 100 µM | [5] 80 µM | [6] > 100 µM | [7] 43.2 µM

Cc1ccc2ccc3ccc4ccccc4c3c2c1.O=C1c2cc([N+](=O)[O-])ccc2-c2c1cc([N+](=O)[O-])cc2[N+](=O)[O-]
inactive: [1] 1.23 µM | [3] 7.74 µM | [4] 2.1 µM | [5] 7.41 µM | [7] 1.4 µM
active: [2] 1.07 µM | [6] 0.966 µM

ClCCSc1c2ccccc2nc2ccccc12
inactive: [1] 3.9 µM | [2] 2.72 µM | [3] 6.7 µM | [4] 16.7 µM | [5] 8.18 µM | [6] 16.9 µM | [7] 13 µM

CCCCCCCCCCCCCNCC(C)O (centres undefined)
inactive: [1] 15.6 µM | [2] 17.9 µM | [3] 7.18 µM | [4] 13.1 µM | [5] 7.24 µM | [6] 13.9 µM | [7] 10.9 µM

Cc1ccc2ccc(C)c(C)c2c1.O=[N+]([O-])c1cc([N+](=O)[O-])c(O)c([N+](=O)[O-])c1O
inactive: [1] > 100 µM | [2] > 100 µM | [3] > 100 µM | [4] > 100 µM | [5] > 100 µM | [6] > 100 µM | [7] > 100 µM

COc1ccc([N+](=O)[O-])c(C[N+](C)(CCCl)CCCl)c1
inactive: [1] > 100 µM | [2] 52.6 µM | [3] > 100 µM | [4] > 100 µM | [5] > 100 µM | [6] > 100 µM | [7] > 100 µM

O=[N+]([O-])c1ncn(F)c1[N+](=O)[O-]
inactive: [1] > 100 µM | [3] > 100 µM | [4] > 100 µM | [5] > 100 µM | [6] > 100 µM | [7] > 100 µM

O=[N+]([O-])C1([N+](=O)[O-])CCCc2nonc21
inactive: [1] 35.1 µM | [2] 21 µM | [3] > 100 µM | [4] > 100 µM | [6] 39.1 µM | [7] 21.4 µM

CCCC[S+](N)(=O)CCC(N)P(=O)(O)O (centres undefined)
inactive: [1] > 100 µM | [2] > 100 µM | [3] > 100 µM | [4] > 100 µM | [5] > 100 µM | [7] > 100 µM

Nc1nc2c(ncn2CCN(CCCl)CCCl)c(=O)[nH]1
inactive: [1] > 100 µM | [3] > 100 µM | [4] > 100 µM | [5] > 100 µM | [6] > 100 µM | [7] > 100 µM

Cc1ccc([N+](=O)[O-])c(C[N+](C)(CCCl)CCCl)c1
inactive: [1] 14.9 µM | [2] 11.9 µM | [3] 33.8 µM | [4] 16.8 µM | [5] 15.6 µM | [6] 12.6 µM | [7] 22.4 µM

NNc1nc2nonc2nc1NN
inactive: [1] 39.4 µM | [2] 20.2 µM | [3] > 100 µM | [4] 40.6 µM | [5] 37.2 µM | [6] 55 µM | [7] 40.4 µM

Cc1[nH]c2c(C)c([N+](=O)[O-])c(C)c([N+](=O)[O-])c2c1[N+](=O)[O-]
inactive: [1] 13.7 µM | [3] 9.64 µM | [4] 5.7 µM | [5] 5.81 µM | [6] 3.21 µM | [7] 6.52 µM | [8] 2.25 µM

COc1ccc(C[N+](C)(CCCl)CCCl)c([N+](=O)[O-])c1
inactive: [1] > 100 µM | [2] 90.8 µM | [3] > 100 µM | [4] > 100 µM | [5] > 100 µM | [6] > 100 µM | [7] > 100 µM

O=[N+]([O-])C1([N+](=O)[O-])COCOC1
inactive: [1] > 100 µM | [2] 44.1 µM | [3] > 100 µM | [4] > 100 µM | [5] 65.9 µM | [6] 82 µM | [7] > 100 µM

COP(C)(=O)C(N)Cc1ccccc1 (centres undefined)
inactive: [1] > 100 µM | [2] > 100 µM | [3] > 100 µM | [4] > 100 µM | [5] 97.3 µM | [6] > 100 µM | [7] > 100 µM

O=[As](O)(O)O
inactive: [1] > 100 µM | [2] > 100 µM | [3] > 100 µM | [4] > 100 µM | [5] > 100 µM | [6] > 100 µM | [7] > 100 µM

O=C1Nc2ccc([N+](=O)[O-])cc2/C1=N/Nc1ccc([N+](=O)[O-])cc1[N+](=O)[O-]
inactive: [1] 21.7 µM | [3] 17.8 µM | [4] 11.9 µM | [5] 26.1 µM | [6] 32.6 µM | [7] 44.4 µM | [8] 18.9 µM

O[C@H]1[C@@H](O)CC2CCN3Cc4cc5c(cc4[C@H]1C23)OCO5 (some centres undefined)
inactive: [1] > 100 µM | [3] > 100 µM | [4] > 100 µM | [5] > 100 µM | [6] > 100 µM | [7] > 100 µM

O=c1[nH]c2c(N/N=C/c3ccc([N+](=O)[O-])o3)c([N+](=O)[O-])c(N/N=C/c3ccc([N+](=O)[O-])o3)c([N+](=O)[O-])c2[nH]1
inactive: [1] 2.18 µM
